This note sets out measurements from article PMC6289942, “Development of a NS2B/NS3 protease inhibition assay using AlphaScreen® beads for screening of anti-dengue activities” (Heliyon, 2018).

This assay concerns the target Dengue NS2B/NS3 protease enzyme (DENV2) (dengue virus serotype 2 (DENV2)) (UniProt P14340).

“Aprotinin (from UniProt P00974 36-93) (natural protein)” gave an IC50 of inhibition of NS2B/NS3 protease activity: cleavage of the tagged peptide substrate, read in the AlphaScreen assay of 350 nM and an IC50 of inhibition of NS2B/NS3 protease activity: protease assay with the fluorogenic substrate BOC-Gly-Arg-Arg-AMC of 150 nM.
